Test results: ChEMBL document CHEMBL1132025, “Macrocyclic hexapeptide analogues of the thrombin receptor (PAR-1) activation motif SFLLRN” (Bioorg Med Chem Lett, 1999)

Biological target: Proteinase-activated receptor 1 (Homo sapiens) (UniProt P25116)
Experiment: In vitro antagonist activity to inhibit human platelet aggregation (gel-filtered platelets) induced by human thrombin at a concentration of 50 uM

- inhibition: 0%
SMILES: CC(C)C[C@H](NC(=O)[C@H](CC(C)C)NC(=O)[C@H](Cc1ccccc1)NC(=O)[C@@H](N)CO)C(=O)N[C@@H](CCCN=C(N)N)C(=O)N[C@@H](CC(N)=O)C(N)=O
